Activation factor data for 10 compounds are collected here from PubChem BioAssay AID1025 (Sanford-Burnham Center for Chemical Genomics, 2008).

Protein sequences, listed by entry. Tags and fused reporters are not part of them.
UniProt P33261, whole entry: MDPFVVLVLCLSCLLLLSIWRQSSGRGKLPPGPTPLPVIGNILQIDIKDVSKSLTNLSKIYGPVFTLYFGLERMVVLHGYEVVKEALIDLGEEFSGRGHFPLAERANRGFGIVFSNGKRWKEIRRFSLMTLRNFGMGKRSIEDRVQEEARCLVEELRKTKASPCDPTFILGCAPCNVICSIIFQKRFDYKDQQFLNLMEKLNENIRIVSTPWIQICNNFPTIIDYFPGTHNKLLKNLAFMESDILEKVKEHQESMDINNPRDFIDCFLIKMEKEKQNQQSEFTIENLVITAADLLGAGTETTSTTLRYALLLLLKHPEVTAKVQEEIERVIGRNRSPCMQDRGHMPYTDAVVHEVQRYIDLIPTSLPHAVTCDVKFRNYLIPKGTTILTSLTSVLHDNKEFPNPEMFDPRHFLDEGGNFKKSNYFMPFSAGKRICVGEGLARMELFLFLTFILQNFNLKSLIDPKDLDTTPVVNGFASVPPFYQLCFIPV

SMILES strings stand for the structures. Some of the results follow. Active and inactive are the calls of the source.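 The calls were made as follows: active = activation factor of at least 2 at 5 µM in the primary screen; inactive = the rest.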

For this assay, the target named is Cytochrome P450 2C19 (Homo sapiens) (UniProt P33261). The assay is described as follows: human CYP2C19 activators, primary screen, biochemical, luminescence (AID 1025).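 Also: 0 = wells with 2.5 mM tranylcypromine and 1 = vehicle-only wells.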 As to conditions: recombinant CYP2C19, luciferin-H EGE luminescence; at 5 µM; stronger effect = higher value; 0 = fully inhibited enzyme, 1 = untreated enzyme.
In the case of `CCC(CO)(C(=O)OC1CN2CCC1CC2)c1ccccc1` (stereo not given), the activation factor was inactive: 1.

As for `CCOc1ncccc1C(=O)NCC1(N2CCOCC2)CCCCC1`, the activation factor was inactive: 0.5.

With `Fc1ccccc1NC1CCN(Cc2ccccc2)CC1`, the activation factor was inactive: 0.1.

For `c1ccc(CN2CCC(Nc3ccccc3)CC2)cc1`, the activation factor is inactive: 0.1.

On to `N/C(=N\O)c1c(N)no[n+]1[O-]`, for which the activation factor was inactive: 1.

For `O=C(NCC1(N2CCOCC2)CCCCC1)c1cc(=O)[nH]c2ccccc12`, the activation factor was inactive: 1.1.

For the compound `N#CC1(Nc2ccccc2)CCN(CCc2ccccc2)CC1`, the activation factor is inactive: 0.6.

For `COc1ccc(NC2CCN(CCc3ccccc3)CC2)c(OC)c1`, the activation factor is inactive: 1.

For `O=C(NCC1(N2CCOCC2)CCCCC1)c1cc2ccccc2o1`, the activation factor was inactive: 0.9.

With `O=C(OC1CN2CCC1CC2)C1c2ccccc2Oc2ccccc21` (stereo not given), the activation factor was inactive: 0.9.
